From ChEMBL document CHEMBL1132351, “Synthesis, in vitro pharmacology, and molecular modeling of very potent tacrine-huperzine A hybrids as acetylcholinesterase inhibitors of potential interest for the treatment of Alzheimer's disease” (J Med Chem, 1999) come the findings set out here.

SMILES strings stand for the structures.

The assay concerns the target Acetylcholinesterase (Bos taurus, UniProt P23795).

In the case of `CCCC1=CC2Cc3nc4ccccc4c(N)c3C(C1)C2` (configuration not stated), half-maximal inhibition (IC50) required 431 nM. Consider `CCCCC1=CC2Cc3nc4ccccc4c(N)c3C(C1)C2` (configuration not stated), for which the IC50 (in general, the concentration needed to halve the response being measured) was found to be 280 nM.
